Values of other authors, collected in patent publication US6413974B1, “6,9,-disubstituted 2-[trans-(4-aminocyclohexyl) amino] purines” (Aventis Pharmaceuticals Inc., priority 1998, dated 2002).

Columns and labels:
[1] = tested on: neuronal PC12 cells and sympathetic neurons; conditions: cited from earlier work
[2] = tested on: PC12 cells, or rat sympathetic neurons; conditions: both or individual olomoucine or flavopiridol, in the presence or absence of camptothecin; cited from earlier work

## Cn1cnc2c(NCc3ccccc3)nc(NCCO)nc21
[1]; following withdrawal of NGF
  apoptosis of post-mitotic differentiated or sympathetic neurons: prevented apoptosis
[1]; two model systems of neuronal survival, Park et al. 1996
  death of neuronal PC12 cells and sympathetic neurons: suppress the death
[2]
  cell death at day 6: approximately 30%
